Paper PMC9630929 (Journal of medicinal chemistry, 2022)

Key:
[1] = tested on: other tested bromodomains; conditions: panel of up to 30 bromodomains in seven subfamilies

SMILES	selectivity among the tested bromodomains (DSF) [1]	growth inhibition of HEK293T cells (HEK293T cells)
CN(C)/C=C1\CCn2c1nc(=O)c1c(Cl)cccc12 [Compound 2, (E)-6-Chloro-3-((dimethylamino)methylene)-2,3-dihydropyrrolo[1,2-a]quinazolin-5(1H)-one]	unselective	
Cc1cccc(C)c1C1NC(=O)c2c(Cl)cccc2N1 (centres unmarked) [Compound 26, 5-Chloro-2-(2,6-dimethylphenyl)-2,3-dihydroquinazolin-4(1H)-one]		off-target toxicity at ≥10 μM concentrations
